Molecular target: NLRP3 (Homo sapiens, UniProt Q96P20)
Test: THP-1 cell assay (LPS priming, nigericin), IL1β release by HTRF; called pyroptosis assay, THP IC50
Details: read-out: THP IC50; NLRP3 inhibitory activity; THP-1 cells, 1.0 ug/mL LPS, compound 3 hrs, nigericin 5 uM 1 hr, IL1β in supernatant
Description: The following method was used for compound screening. • 1. Seed THP-1 cells (5.56*10^5 cells/mL) containing 1.0 ug/mL LPS (SIGMA, L6529) in 45 uL RPMI 1640 medium (without FBS) into 384-well plate (Thermo Scientific, 164688). • 2. Add 5 uL compound (10 doses starting from 5 uM, 1:3 dilution) or vehicle (0.05% DMSO in medium) to the appropriate wells. • 3. Centrifuge the plates at 1000 rpm for 2 mins and incubate for 3 hrs at 37° C., 5% CO2. • 4. Add 5 uL nigericin (MEC, HY-100381) (final conc. 5 uM) to sample wells and positive control wells; add 5 uL RPMI 1640 medium to negative control wells. • 5. Centrifuge plates at 1000 rpm for 2 mins and incubate for 1 hr at 37° C., 5% CO2. • 6. At the end of the incubation period, centrifuge plates at 1000 rpm for 6 mins and transfer 8 uL supernatant into 384-well assay plates (PerkinElmer, 6008280). • 7. Add 8 ul RPMI 1640 medium into each well and spin down for 10 secs. • 8. Prepare the standard solutions and pre-mixed IL1β antibody solution of Human […] kits (PerkinElmer, 62HIL1BPEH) according to the instruction. • 9. Add 16 uL standard solutions into clear wells of 384-well assay plates. • 10. […] Seal the plates, spin down for 10 secs, incubation for overnight at RT and read on an HTRF® compatible reader (BMG LABTECH, PHERAstar FS). • 12. The concentrations of IL1β for treated wells are calculated by the standard curve. • 13. […]

By UniProt entry, the sequences of proteins in these tests, tags left out.
UniProt Q96P20, whole entry: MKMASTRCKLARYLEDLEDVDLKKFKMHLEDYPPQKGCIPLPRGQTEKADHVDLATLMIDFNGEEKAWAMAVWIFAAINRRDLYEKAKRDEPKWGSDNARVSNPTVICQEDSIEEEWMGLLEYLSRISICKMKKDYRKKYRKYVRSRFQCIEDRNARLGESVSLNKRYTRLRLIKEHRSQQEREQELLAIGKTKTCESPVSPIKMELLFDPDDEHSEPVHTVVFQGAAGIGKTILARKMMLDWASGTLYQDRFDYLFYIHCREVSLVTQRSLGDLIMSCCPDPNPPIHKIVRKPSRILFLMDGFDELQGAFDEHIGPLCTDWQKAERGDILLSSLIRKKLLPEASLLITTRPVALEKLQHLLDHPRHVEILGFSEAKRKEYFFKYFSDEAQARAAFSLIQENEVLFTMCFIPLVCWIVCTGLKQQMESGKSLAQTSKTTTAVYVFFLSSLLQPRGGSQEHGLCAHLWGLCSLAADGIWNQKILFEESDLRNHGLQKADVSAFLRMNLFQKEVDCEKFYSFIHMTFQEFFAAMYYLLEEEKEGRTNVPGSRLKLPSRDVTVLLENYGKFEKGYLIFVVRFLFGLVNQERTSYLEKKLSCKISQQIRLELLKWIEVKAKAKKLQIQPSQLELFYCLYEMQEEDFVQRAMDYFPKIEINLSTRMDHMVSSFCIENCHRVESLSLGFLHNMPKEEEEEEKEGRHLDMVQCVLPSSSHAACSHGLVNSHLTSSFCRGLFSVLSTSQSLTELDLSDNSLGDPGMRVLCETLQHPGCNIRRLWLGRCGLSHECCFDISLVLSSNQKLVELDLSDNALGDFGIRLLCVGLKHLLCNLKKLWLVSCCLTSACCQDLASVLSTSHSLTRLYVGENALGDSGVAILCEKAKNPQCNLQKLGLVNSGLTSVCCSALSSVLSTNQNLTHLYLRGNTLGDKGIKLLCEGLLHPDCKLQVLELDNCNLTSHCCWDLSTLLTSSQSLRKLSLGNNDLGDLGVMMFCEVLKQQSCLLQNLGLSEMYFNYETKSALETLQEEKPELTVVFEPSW

SMILES | IC50
Cc1cc2c(c(NC(=O)NS(=O)(=O)c3cnn(CC4CC4)c3)c1-c1ccn3cncc3c1)CCC2 | < 30 nM
CC(C)(O)c1csc(S(=O)(=O)NC(=O)Nc2c(-c3ccc4cncn4c3)ccc3c2CCC3)c1 | 30 to 300 nM

From patent US20240400561A1, “NOVEL SUBSTITUTED SULFONYLUREA COMPOUNDS AS INHIBITORS OF INTERLEUKIN-1 ACTIVITY” (Viva Star Biosciences (Suzhou) Co., Ltd., priority 2021, published 2024)
